Drawing on ChEMBL document CHEMBL5113413, “New peptidomimetic rhodesain inhibitors with improved selectivity towards human cathepsins” (Eur J Med Chem, 2022), this text covers Kinact, Second-order inactivation rate constant (kinact/Ki) and Second-order inactivation rate constant for ten compounds.

Chains of the proteins cited; added tags and fusions are not shown. Lines headed by an entry give the natural chain unless they say otherwise; changes in a name come on top.
UniProt P07711: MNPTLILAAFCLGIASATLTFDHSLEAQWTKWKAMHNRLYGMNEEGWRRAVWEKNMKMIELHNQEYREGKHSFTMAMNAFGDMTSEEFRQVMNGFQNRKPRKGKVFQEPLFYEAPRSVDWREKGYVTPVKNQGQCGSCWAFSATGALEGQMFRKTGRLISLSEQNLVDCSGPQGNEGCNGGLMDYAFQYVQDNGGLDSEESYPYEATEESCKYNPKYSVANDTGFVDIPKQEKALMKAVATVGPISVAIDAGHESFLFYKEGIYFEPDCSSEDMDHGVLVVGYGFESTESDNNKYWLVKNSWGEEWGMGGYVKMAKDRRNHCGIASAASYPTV

Assay [1] addresses Rhodesain (Trypanosoma brucei rhodesiense) (UniProt Q95PM0). As to the kind of experiment: Irreversible inhibition of Trypanosoma brucei rhodesiense rhodesain assessed as Kinact using Cbz-Phe-Arg-AMC as fluorogenic substrate by fluorometric assay.
Assay [2] shares this target. Description: Irreversible inhibition of Trypanosoma brucei rhodesiense rhodesain assessed as second order rate constant using Cbz-Phe-Arg-AMC as fluorogenic substrate by fluorometric assay.
Assay [3] concerns the target T1, Procathepsin L (Homo sapiens, UniProt P07711). Description: Irreversible inhibition of human Cathepsin L assessed as Kinact using Cbz-Phe-Arg-AMC as fluorogenic substrate by fluorometric assay.
Assay [4] addresses T1, Procathepsin L. As to the kind of experiment: Irreversible inhibition of human Cathepsin L assessed as second order rate constant using Cbz-Phe-Arg-AMC as fluorogenic substrate by fluorometric assay.
A further assay addresses Cathepsin B (Homo sapiens, UniProt P07858). Description: Irreversible inhibition of human Cathepsin B assessed as Kinact using Cbz-Phe-Arg-AMC as fluorogenic substrate by fluorometric assay.

Regarding `CC(=O)N(Cc1ccccc1C(=O)N[C@H](/C=C/S(=O)(=O)c1ccccc1)CCc1ccccc1)C(C)=O`, the Kinact in assay [1] came out at 0.0017 s⁻¹. In assay [2], the Second-order inactivation rate constant (kinact/Ki) was 0.018 10^5/M/s.
For `O=C(NCc1ccccc1C(=O)N[C@H](/C=C/S(=O)(=O)c1ccccc1)CCc1ccccc1)c1ccccc1`, the figures for the Kinact (in assay [1]; at Procathepsin L [3]; on Cathepsin B) were 0.0021 s⁻¹, 0.0077 s⁻¹ and 0.0033 s⁻¹, respectively. Further, the Second-order inactivation rate constant (kinact/Ki) in assay [2] was 0.21 10^5/M/s. Moreover, the Second-order inactivation rate constant on Procathepsin L [4] was 5.17 10^3/M/s.
`O=C(Cc1ccccc1C(=O)N[C@H](/C=C/S(=O)(=O)c1ccccc1)CCc1ccccc1)Nc1ccc(C(=O)O)cc1`: the Kinact in assay [1] is 0.001 s⁻¹. In addition, the Second-order inactivation rate constant (kinact/Ki) in assay [2] is 3.45 10^3/M/s.
With `CNC(=O)Cc1ccccc1C(=O)N[C@H](/C=C/S(=O)(=O)c1ccccc1)CCc1ccccc1`, the Kinact in assay [1] was 0.0026 s⁻¹. Also, the Second-order inactivation rate constant (kinact/Ki) in assay [2] was 5.53 10^3/M/s.
For `O=C(O)c1cccc(C(=O)NCc2ccccc2C(=O)N[C@H](/C=C/S(=O)(=O)c2ccccc2)CCc2ccccc2)c1`, in that order: 0.0048 s⁻¹ and 0.0065 10^5/M/s.
Consider `CC(=O)NCc1ccccc1C(=O)N[C@H](/C=C/S(=O)(=O)c1ccccc1)CCc1ccccc1`, for which the Kinact in assay [1] was 0.0035 s⁻¹. For the same compound, in assay [2], the Second-order inactivation rate constant (kinact/Ki) is 0.0075 10^5/M/s.
With `O=C(NCc1ccccc1C(=O)N[C@H](/C=C/S(=O)(=O)Oc1ccccc1)CCc1ccccc1)c1ccncc1`, the figures for the Kinact (in assay [1]; at Procathepsin L [3]; at Cathepsin B) were 0.0078 s⁻¹, 0.0066 s⁻¹ and 0.0027 s⁻¹, respectively. For the same compound, in assay [2], the Second-order inactivation rate constant (kinact/Ki) is 8.67 10^5/M/s. Also, the Second-order inactivation rate constant at Procathepsin L [4] was 5.74 10^3/M/s.
As for `CN1CCN(C(=O)N[C@@H](Cc2ccccc2)C(=O)N[C@H](/C=C/S(=O)(=O)c2ccccc2)CCc2ccccc2)CC1` [K-777], on Procathepsin L [4], the Second-order inactivation rate constant is 9.5 10^5/M/s.
With `O=C(NCc1ccccc1C(=O)N[C@H](/C=C/S(=O)(=O)c1ccccc1)CCc1ccccc1)c1cccc(O)c1`, the Kinact in assay [1] was found to be 0.0022 s⁻¹. Moreover, the Second-order inactivation rate constant (kinact/Ki) in assay [2] is 0.033 10^5/M/s.
For `O=C(Cc1ccccc1C(=O)N[C@H](/C=C/S(=O)(=O)c1ccccc1)CCc1ccccc1)Nc1cccc(C(=O)O)c1`, in that order: 0.0074 s⁻¹ and 4.2 10^2/M/s.
